In the test the target is T1, checkpoint protein PD-1 (Homo sapiens, UniProt Q15116).
T1 construct: Jurkat cells expressing GFP under the control of the NFAT promoter; endogenous in cells; host or cells: Jurkat NFAT-GFP reporter cells, co-cultured with U251-PD-L1 cells
Nature of the test: NFAT promoter GFP reporter Jurkat cells exposed to U251-PD-L1 and PHA (checkpoint inhibition). Type of test: cell-based. Particulars: U251-PD-L1, increasing PHA, flow cytometry, compared to control vector. The text has this: FIG. 2: Checkpoint inhibition by a dominant negative PD1 (dnPD1opt) leads to an improvement in NFAT promoter activity: Jurkat cells expressing GFP under the control of the NFAT promoter were transduced with a dentPD1opt expressing lentiviral vector or a control vector. The cells were then exposed 1 day earlier to a cell line expressing high levels of PD-L1 (U251-PD-L1) in duplicate wells of a 96-well plate with increasing levels of a TCR-linked proliferative signal (phytohemagglutinin: PHA). The number of GFP expressing cells was determined by flow cytometry.
The example relates to experiments that show successful inhibition of the checkpoint protein PD-1 through the dominant negative truncated form of PD-1, dntPD1opt. Jurkat cells expressing GFP under the control of the NFAT promoter (FIG. 2). The Jurkat cells were transduced with a control lentiviral vector or the checkpoint inhibitor (dntPD1opt) encoding lentiviral vector. One day before, these cells were exposed in duplicate in a 96 well plate to a cell line expressing high concentrations of PD-L1 (U251-PD-L1) and an increasing concentration of a TCR mediated T cell stimulus, phytohaemagglutinin (PHA). […] Example 3: The activity IL-15 superagonists (15R15) compared to IL-2 or IL-15
(A flow cytometer gives signals particle by particle.)

B1: dntPD1opt: dominant negative truncated form of PD-1, checkpoint inhibitor, expressed from lentiviral vector in Jurkat cells (protein)
chain: LDSPDRPWNPPTFSPALLVVTEGDNATFTCSFSNTSESFVLNWYRMSPSNQTDKLAAFPEDRSQPGQDCRFRVTQLPNGRDFHMSVVRARRNDSGTYLCGAISLAPKAQIKESLRAELRVTERRAEVPTAHPSPSPRPAGQFQTLVVGVVGGLLGSLVLLVWVLAVICSRAARG
For the molecule B1, the “number of GFP expressing cells (NFAT promoter)” value is recorded as “higher for dntPD1opt expressing Jurkat cells compared to the negative control”.

(Values after patent publication US20240009310A1, “A […] ANTIGEN RECEPTOR CONSTRUCT ENCODING A CHECKPOINT INHIBITORY MOLECULE AND AN IMMUNE STIMULATORY CYTOKINE AND CAR-EXPRESSING CELLS RECOGNIZING CD44v6” (Charité - Universitätsmedizin Berlin, priority 2020, published 2024).)
